# The list shows a part of the results, in another mix than the full data. Active and inactive are the calls of the source.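 Rule for the calls: active = more than half of a compound's replicate wells show inhibition beyond 50%, single wells judged on their own value; inconclusive = some, but no more than half, of replicates pass 50% inhibition; inactive = no replicate passes 50% inhibition.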
# Amino acid sequences for entries named in this document (tags omitted). Residues count along the entry.
# UniProt Q9H3R0, 1-420 limits assumed: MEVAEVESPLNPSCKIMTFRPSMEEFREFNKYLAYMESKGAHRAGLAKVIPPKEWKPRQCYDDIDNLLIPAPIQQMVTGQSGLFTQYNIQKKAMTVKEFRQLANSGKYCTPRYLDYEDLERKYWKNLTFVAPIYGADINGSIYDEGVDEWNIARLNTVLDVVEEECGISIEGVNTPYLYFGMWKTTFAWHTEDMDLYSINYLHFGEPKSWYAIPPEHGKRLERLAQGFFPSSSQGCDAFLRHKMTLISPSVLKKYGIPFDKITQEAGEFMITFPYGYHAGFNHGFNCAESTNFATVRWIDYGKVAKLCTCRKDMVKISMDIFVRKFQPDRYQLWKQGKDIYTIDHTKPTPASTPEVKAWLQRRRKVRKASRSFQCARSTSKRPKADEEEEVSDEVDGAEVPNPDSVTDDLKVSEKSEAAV
# Target: Lysine-specific demethylase 4C (Homo sapiens) (UniProt Q9H3R0)
# Assay: JMJD2C H3K9me3 demethylation blockers – biochemical, fluorescence, DELFIA europium, primary screen (AID 2099);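 note: signal counts dimethyl H3K9 product captured on neutravidin plate; 0% = median of DMSO wells and 100% = 0.3 times that DMSO median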
# Details: GST-JMJD2C(1-420) H3K9me3 demethylation, at 2.35 µM, stronger effect = higher value
row,Structure (SMILES),inhibition
1,NC(=O)Nc1ccc([As](=O)(O)O)cc1,inactive: -1.31%
2,O=[N+]([O-])c1ncn(CCn2cnc([N+](=O)[O-])n2)n1,inactive: -1.2%
